Assay results reported in BindingDB's records for doi:10.1021/bi401043w (Mayo Clinic, 2013).

Sequences of proteins named here, by UniProt entry; tags and fusion partners are left off. A change or cut given only in a name is not applied to a line headed by its entry.
UniProt P22303: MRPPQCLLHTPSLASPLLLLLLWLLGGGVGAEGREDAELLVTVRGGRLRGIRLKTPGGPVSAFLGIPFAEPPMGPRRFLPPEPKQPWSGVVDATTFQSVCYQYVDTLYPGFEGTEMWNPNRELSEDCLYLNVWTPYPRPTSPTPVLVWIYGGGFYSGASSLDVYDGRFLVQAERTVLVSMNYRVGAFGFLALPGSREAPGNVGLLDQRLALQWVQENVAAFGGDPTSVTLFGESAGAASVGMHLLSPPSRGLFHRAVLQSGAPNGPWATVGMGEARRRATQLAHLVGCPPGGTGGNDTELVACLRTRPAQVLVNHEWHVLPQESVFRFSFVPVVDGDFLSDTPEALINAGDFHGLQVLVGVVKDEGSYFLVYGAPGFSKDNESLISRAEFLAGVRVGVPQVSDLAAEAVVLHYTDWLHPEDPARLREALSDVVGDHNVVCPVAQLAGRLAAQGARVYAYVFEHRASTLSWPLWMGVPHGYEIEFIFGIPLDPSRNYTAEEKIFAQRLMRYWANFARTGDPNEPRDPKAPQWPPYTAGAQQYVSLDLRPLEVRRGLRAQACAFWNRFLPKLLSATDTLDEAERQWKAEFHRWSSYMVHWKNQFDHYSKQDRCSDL

Target: Acetylcholinesterase (Homo sapiens, UniProt P22303)
Assay: Assay of Substrate Hydrolysis
Conditions: pH 7; 25 °C

## CN(C)c1ccc2nc3ccc(=[N+](C)C)cc-3sc2c1 [Methylene Blue anhydrous]
  Ki: 110 nM
